The values that follow are results of earlier work, collected in patent publication US5637309A, “Physiologically active substance-prolonged releasing-type pharmaceutical preparation” (Shiseido Company, Ltd., priority 1993, dated 1997).

The data set concerns contracted blood vessels. The settings on record: subarachnoid hemorrhage rabbit models, aseptic solution into cisterna magna; cited from earlier work.

“calcitonin gene-related peptide (ACDTATCVTHRLAGLLSRSGGVVKNNFVPTNVGSKAF; Calcitonin gene-related peptide 1; UniProt P06881 83-119, looked up) [CGRP, human alpha CGRP: Bachem Feinchemikalien, AG, Budendorf, Switzerland]”: the “Dilation effects on the contracted blood vessels” value was “dilation effects on the contracted blood vessels are obtained”.
